Tests used:
[1] = biological target: neurotensin receptor 1 (NTS1R), endogenous in HT-29 colon carcinoma cells (human (endogenous in HT-29)) (UniProt P30989)
NTS1R = NTS1R (Homo sapiens, UniProt P30989); experiment: flow cytometric association and dissociation kinetics at HT-29 cells; format: binding; conditions: K d(kin) = k off/k on; ± propagated error; read-out: K d(kin) from k off and k on (monophasic association)

Protein sequences, listed by entry. Tags and fused reporters are not part of them.
UniProt P30989, whole entry: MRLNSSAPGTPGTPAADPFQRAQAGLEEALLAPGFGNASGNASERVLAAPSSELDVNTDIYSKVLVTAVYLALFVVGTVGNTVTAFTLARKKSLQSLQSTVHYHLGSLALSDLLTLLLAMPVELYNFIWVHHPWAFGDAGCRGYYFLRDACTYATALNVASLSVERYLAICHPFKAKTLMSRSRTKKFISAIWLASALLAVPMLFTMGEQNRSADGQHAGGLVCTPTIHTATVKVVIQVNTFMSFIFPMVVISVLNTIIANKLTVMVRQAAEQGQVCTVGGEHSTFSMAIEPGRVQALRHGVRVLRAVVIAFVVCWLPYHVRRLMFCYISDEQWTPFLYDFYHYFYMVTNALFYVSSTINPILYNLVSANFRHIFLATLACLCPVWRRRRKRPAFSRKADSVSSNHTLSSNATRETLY

EC50, Fura-2 Ca^2+ assay at HT-29 cells (NTS1R agonism) [1] [nM] | pEC50, Fura-2 Ca^2+ assay at HT-29 cells (NTS1R agonism) [1] | Compound | Kd (NTS1R) [nM]
1.2 | 8.96 | NT(8–13) (peptide) | –
– | – | CC[C@H](C)[C@H](NC(=O)[C@@H](NC(=O)[C@@H]1CCCN1C(=O)[C@H](CCCNC(=N)N)NC(=O)[C@H](CCCNC(=N)NC(=O)NCCCCNC(=O)CCCCCN1\C(=C/C=C/C=C/C2=[N+](CCCCS(=O)(=O)[O-])c3ccccc3C2(C)C)C(C)(C)c2cc(S(=O)(=O)O)ccc21)NC)C(C)(C)c1ccc(O)cc1)C(=O)N[C@@H](C[Si](C)(C)C)C(=O)O [compound 21, N ^α-Methyl-N ^ω-{[4-(N-{6-3H-[2-(5–3H-(1-(4-sulfonatobutyl)-3,3-dimethyl)indol-2-ylidenepent-1,3-dienyl)-3,3-dimethyl-5-sulfo]indol-1-ium-1-yl}hexanoyl)-aminobutyl]aminocarbonyl}Arg-Arg-Pro-β,β-dimethyl-L-Tyr-Ile-β-trimethylsilyl-Ala Tris(hydrotrifluoroacetate)] | 0.03 ± 0.007

From publication PMC12481580 (Journal of Medicinal Chemistry, 2025)
